The list shows a part of the results, in another mix than the full data. Some structures show a salt or complex split into parts, the way the source records it. Activity calls are given as the source filed them. Cut-off read from the data, not from the text of the source: active = growth inhibition above about 70%; inactive = the rest.

Assay [1] can be described thus: NCI Yeast Anticancer Drug Screen. Data for the rad50 strain (AID 155).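 Note: 0% = growth of vehicle-only cultures of the same strain.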 The note with it: S. cerevisiae rad50 strain growth inhibition; at 50.0 µM; stronger effect = higher value.
The nature of assay [2]: NCI Yeast Anticancer Drug Screen. Data for the mec2-1 strain (AID 157). The note with it: S. cerevisiae mec2-1 strain, at 50.0 µM, stronger effect = higher value.
The nature of assay [3]: NCI Yeast Anticancer Drug Screen. Data for the sgs1 mgt1 strain (AID 161).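 Note: 0% = growth of cultures given vehicle only.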 The conditions noted are these: S. cerevisiae sgs1 mgt1 strain, at 50.0 µM, stronger effect = higher value.
A short description of assay [4]: NCI Yeast Anticancer Drug Screen. Data for the cln2 rad14 strain (AID 165).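 Note: 0% = growth equal to vehicle treated cultures.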 The note with it: S. cerevisiae cln2 rad14 strain, at 50.0 µM, stronger effect = higher value.
Assay [5] is described as follows: NCI Yeast Anticancer Drug Screen. Data for the bub3 strain (AID 167). The note with it: S. cerevisiae bub3 mutant strain, at 50.0 µM, stronger effect = higher value.
Assay [6] can be described thus: NCI Yeast Anticancer Drug Screen. Data for the mlh1 rad18 strain (AID 175). The conditions noted are these: S. cerevisiae mlh1 rad18 strain growth inhibition; at 50.0 µM; stronger effect = higher value.

On to `CCN(CC)CCS(=O)CCN(CC)CC`, for which the growth inhibition was inactive: 11.1% in assay [1]; inactive: 11.9% in assay [2]; inactive: 19.8% in assay [3]; inactive: -1.6% in assay [4]; inactive: -2.05% in assay [5]; inactive: 46.7% in assay [6].
Consider `CCOC(=O)C(CCSC)Nc1nc2ccccc2o1.O=[N+]([O-])c1cc([N+](=O)[O-])c(O)c([N+](=O)[O-])c1` (stereo not drawn), for which the growth inhibition in assay [1] is inactive: 8.05%; in assay [2], inactive: 5.1%; in assay [3] it was inactive: 5.7%; in assay [4], inactive: 10.6%; in assay [5], inactive: 29.1%; in assay [6], inactive: 9.6%.
Consider `Cc1ccc(C(=N)N)cc1.O=[N+]([O-])c1cc([N+](=O)[O-])c(O)c([N+](=O)[O-])c1`, for which the growth inhibition in assay [1] is inactive: 17.1%; in assay [2], inactive: -2.25%; in assay [3], inactive: 8.95%; in assay [4], inactive: 14.2%; in assay [5], inactive: 0.05%; in assay [6] it was inactive: -4.55%.
Take `CC(C)CCC(O)(C(=O)OCCN1CCCC1)c1ccccc1` (stereo not drawn): the growth inhibition in assay [1] is inactive: 1.8%; in assay [2], inactive: -4.6%; in assay [3] it was inactive: 8.8%; in assay [4] it was inactive: -10%; in assay [5], inactive: -5.3%; in assay [6] it was inactive: 3.55%.
For `O=[N+]([O-])c1cc([N+](=O)[O-])c(O)c([N+](=O)[O-])c1.SCCCc1cccnc1`, the growth inhibition was inactive: 1.9% in assay [1]; inactive: -5.8% in assay [2]; inactive: 4.3% in assay [3]; inactive: 6.8% in assay [4]; inactive: 1.2% in assay [5]; inactive: -5.5% in assay [6].
In the case of `[C-]#N.[C-]#[O+].[C-]#[O+].[C-]#[O+].[C-]#[O+].[C-]#[O+].[Cr]`, the growth inhibition in assay [1] is inactive: -0.65%; in assay [2], inactive: 11.7%; in assay [3], inactive: 2.7%; in assay [4], inactive: -87.1%; in assay [5] it was inactive: -33.4%; in assay [6], inactive: -9.3%.
With `CCCP(=O)(N(C)C)N(C)C`, the growth inhibition in assay [1] is inactive: -2%; in assay [2] it was inactive: -10.1%; in assay [3] it was inactive: -2.05%; in assay [4] it was inactive: -11.1%; in assay [5], inactive: -27.2%; in assay [6], inactive: -8.85%.
Turning to `CC(C)CCCC(C)CN(C)CC(C)O.O=[N+]([O-])c1cc([N+](=O)[O-])c(O)c([N+](=O)[O-])c1`, the growth inhibition in assay [1] is inactive: 38.1%; in assay [2], inactive: 2.2%; in assay [3], inactive: 39.5%; in assay [4], inactive: -16.7%; in assay [5], inactive: 2.35%; in assay [6], inactive: 17.6%.
As for `CC(C)=C(OP(C)(I)(N(C)C)N(C)C)C(C)(C)C(=O)N(C)C`, the growth inhibition is inactive: 35.9% in assay [1]; inactive: -9.35% in assay [2]; inactive: 34.5% in assay [3]; inactive: -3.95% in assay [4]; inactive: 1.5% in assay [5]; inactive: 8.85% in assay [6].
Take `C1CCN(C2CC3CC2C2CSCC32)CC1` (stereo not drawn): the growth inhibition in assay [1] is inactive: 62.5%; in assay [2], inactive: 37.6%; in assay [3] it was active: 72.3%; in assay [4] it was inactive: -2.1%; in assay [5] it was inactive: 11.3%; in assay [6] it was inactive: 42.8%.
Regarding `[N-]=[N+]=NCc1cn[nH]n1`, the growth inhibition in assay [1] is inactive: -10.7%; in assay [2] it was inactive: -7.05%; in assay [3] it was inactive: 11.4%; in assay [4], inactive: -9.1%; in assay [5], inactive: -5.15%; in assay [6], inactive: 10.7%.
Take `Cc1ccc([N+](=O)[O-])cc1[N+](=O)[O-]`: the growth inhibition is inactive: 0.6% in assay [1]; inactive: 17.1% in assay [2]; inactive: 13.2% in assay [3]; inactive: -26.2% in assay [4]; inactive: -5.15% in assay [5]; inactive: -0.85% in assay [6].
As for `CCN(CC)CCCN(C(C)=O)c1ccccc1[N+](=O)[O-].O=[N+]([O-])c1cc([N+](=O)[O-])c(O)c([N+](=O)[O-])c1`, the growth inhibition is inactive: 2.8% in assay [1]; inactive: -2.95% in assay [2]; inactive: -5.3% in assay [3]; inactive: -10.3% in assay [4]; inactive: 5.85% in assay [5]; inactive: 8.05% in assay [6].
In the case of `CP(=O)(O)O.[Cu+2]`, the growth inhibition in assay [1] was inactive: -6.2%; in assay [2] it was inactive: -9.55%; in assay [3], inactive: -4.45%; in assay [4], inactive: -45.1%; in assay [5] it was inactive: -46.5%; in assay [6] it was inactive: -6.6%.
Turning to `CC(C)OP(C)(=O)O.[Fe]`, the growth inhibition in assay [1] was inactive: -3.15%; in assay [2] it was inactive: -7.5%; in assay [3], inactive: 2.4%; in assay [4], inactive: -39.1%; in assay [5] it was inactive: -12.9%; in assay [6], inactive: -4.5%.
In the case of `C[S+](C)(C)=O.O=[N+]([O-])c1cc([N+](=O)[O-])c(S(=O)(=O)[O-])c([N+](=O)[O-])c1`, the growth inhibition in assay [1] is inactive: 27.9%; in assay [2], inactive: 13.2%; in assay [3] it was inactive: 37.6%; in assay [4], inactive: 22.5%; in assay [5], inactive: 29.1%; in assay [6], inactive: 23.3%.
Turning to `O=C1OCCN1[N+](=O)[O-]`, the growth inhibition was inactive: 2.6% in assay [1]; inactive: 12.8% in assay [2]; inactive: 9.35% in assay [3]; inactive: 32.8% in assay [4]; inactive: 23.2% in assay [5]; inactive: 26.1% in assay [6].
For `O=[N+]([O-])c1cccc([N+](=O)[O-])c1`, the growth inhibition is inactive: -15.2% in assay [1]; inactive: 2.6% in assay [2]; inactive: -7% in assay [3]; inactive: -46.4% in assay [4]; inactive: -1.25% in assay [5]; inactive: 6.5% in assay [6].

(Values after PubChem BioAssay (NCI).)
